From ChEMBL document CHEMBL1128285, “Search for new purine- and ribose-modified adenosine analogues as selective agonists and antagonists at adenosine receptors” (J Med Chem, 1995)

Sequences of proteins named here, by UniProt entry; tags and fusion partners are left off.
UniProt P25099, whole entry: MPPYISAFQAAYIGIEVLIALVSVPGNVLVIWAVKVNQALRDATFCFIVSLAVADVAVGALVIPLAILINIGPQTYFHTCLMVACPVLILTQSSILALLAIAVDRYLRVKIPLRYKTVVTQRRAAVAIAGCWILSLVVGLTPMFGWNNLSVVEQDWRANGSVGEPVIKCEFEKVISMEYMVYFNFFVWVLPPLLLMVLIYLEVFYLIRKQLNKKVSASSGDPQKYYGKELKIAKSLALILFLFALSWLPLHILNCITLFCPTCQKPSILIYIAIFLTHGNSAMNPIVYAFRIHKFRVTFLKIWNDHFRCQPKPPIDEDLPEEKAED

Molecular target: Adenosine receptor A1 (Rattus norvegicus, UniProt P25099)

**Q.** Which Ki does the source give for Nc1nccc2c1ncn2[C@@H]1O[C@H](CO)[C@@H](O)[C@H]1O here?
**A.** Its Ki is 21.5 µM.
